Measured affinities in a library of Ab-14 heavy chain variants

Binding partner: SARS-CoV-2 spike HR2 peptide, sequence PDVDLGDISGINAS.

Parent scFv Ab-14: VH joined to VL by a (GGGGS)3 linker. Changes lie in the heavy chain CDRs alone.
VH: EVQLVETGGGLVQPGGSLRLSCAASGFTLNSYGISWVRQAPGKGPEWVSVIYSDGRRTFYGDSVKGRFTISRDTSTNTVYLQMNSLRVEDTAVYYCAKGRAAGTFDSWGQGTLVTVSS
VL: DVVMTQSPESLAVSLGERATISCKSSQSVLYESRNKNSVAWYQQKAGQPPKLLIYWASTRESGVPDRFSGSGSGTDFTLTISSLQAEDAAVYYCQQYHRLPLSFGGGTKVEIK

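The starting antibody came from a phage panning campaign against this peptide. Designed CDR sequences, proposed from the first random library and measured here. Their group label is 14H_GP_HC (GP: Gaussian process model; HC: hill climbing; a sequence that several methods proposed may carry one label only). Affinity was read by AlphaSeq, a pooled yeast mating assay with surface-displayed partners. Mating (16 h, 30 °C) was followed by selection of diploids and sequencing of their barcodes. The ratio of observed to expected reads was calibrated, replicate by replicate, on BCL2-family standards whose Kd was known from biolayer interferometry. The assay was run in six technical replicates.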

Variants are written as CDR1, CDR2 and CDR3 of the heavy chain (limits as in the source). Parent: GFTLNSYGIS, VIYSDGRRTFYGDSVK, GRAAGTFDS.
Numbers give log10(Kd / nM), so 0 is 1 nM and 3 is 1 µM. Smaller is tighter.
Averages over replicates are reported, and they cover detected replicates only.
"ND" marks a missing value. The strain was present, yet no cells mated with the target were sequenced in that replicate, which points to weak or no binding.
Of ten entries with the parent sequence, four were seen in most replicates (averages 0.34 to 2.37), three in one and three in none, so single entries are noisy.
In the paper, a design with two or fewer of six values counts as a poor binder.
Empty control strains, which show no peptide, gave a signal in 1% of pairings with all heavy chain designs; the median was 2.08 and 95% of these signals were weaker than 0.84. No background was subtracted. For each scFv, signals with the empty controls are counted beside the result, with their mean in brackets.
The range of this assay differs from that of the first round, and the authors advise against merging the two.

| CDR-H1 | CDR-H2 | CDR-H3 | replicates, log10 nM | mean log10 Kd (nM) | signal with controls |
|---|---|---|---|---|---|
| GFTLNEYGIS | VIYSDGRRTFYTDSVK | GRLAGTFDE | 0.60 / 0.13 / 0.42 / -0.16 / -0.01 / 0.76 | 0.29 | 0 of 18 |
| GFTLNDYGIS | VIYSDGRRTFYGDSVK | GRAAGTFDE | 0.54 / 0.51 / 1.00 / 0.66 / 0.67 / 0.92 | 0.72 | 1 of 18 (1.67) |
| GFDLNEYGIS | VIYSDGRRTFYGDSVK | GRAAGTFDM | -0.26 / 0.94 / 0.25 / 0.63 / -0.42 / 0.21 | 0.22 | 0 of 18 |
| GFTLNSYGIS | VIYSDGRRTFYSDSVK | GVAGGTFDQ | ND / ND / ND / 0.29 / ND / ND | 0.29 | 0 of 18 |
| GFGLNEYGIS | VIYSDGRRTFYTDSVK | GRAAGTFDS | 0.22 / -0.04 / -0.23 / -0.14 / 0.15 / 0.23 | 0.03 | 1 of 18 (2.26) |
| GFRLNSYGIS | VIYSDGRRTFYKDSVK | GQLAGTFDS | ND / ND / ND / ND / ND / ND | ND | 0 of 18 |
| GFTLCSYGIS | VIYADGRRTFYGDSVK | GRAAGTFDS | ND / ND / ND / 0.42 / ND / ND | 0.42 | 0 of 18 |
| GFTLNEYGIS | VIYSDGRRTFYSDSVK | GKPAGTFDS | 1.88 / 1.96 / ND / 1.27 / 1.41 / 2.50 | 1.80 | 1 of 18 (2.21) |
| GFQLNSYGIS | VIYSDGRRTFYGDSVK | GRAAGTFDV | 1.21 / 1.40 / ND / 0.96 / 1.32 / 1.36 | 1.25 | 0 of 18 |
| GFSLNWYGIS | VIYSDGRRTFYGDSVK | GRAAVTFDQ | ND / ND / ND / ND / ND / ND | ND | 0 of 18 |
| GFTLNSYGIS | VIYSDGVRTFYSDSVK | GKAGGTFDS | 1.37 / ND / 1.57 / 1.72 / 1.88 / 2.64 | 1.83 | 1 of 18 (2.02) |
| GFTLDSYGIS | VIYADGRRTFYGDSVK | GRAAGTFVS | ND / ND / ND / ND / ND / ND | ND | 0 of 18 |
| GFTLNEYGIS | VIYSDGRRTMYTDSVK | GRCAGTFDS | ND / ND / ND / ND / ND / ND | ND | 0 of 18 |
| GFTLNEYGIS | VIYSDGRRTFYADSVK | GRDAGTFDS | -0.22 / -0.11 / 0.16 / -0.39 / -0.12 / -0.14 | -0.14 | 0 of 18 |
| GFDLNSYGIS | VIYSDGRRTFYSDSVK | GHAGGTFDS | ND / 1.76 / 0.93 / 1.15 / 1.62 / 1.08 | 1.31 | 0 of 18 |
| GFTLNDYGIS | VIYSDGRRSFYSDSVK | GRQAGTFDS | 0.31 / 0.25 / 0.08 / -0.05 / 0.56 / 0.17 | 0.22 | 0 of 18 |
| GFDLNSYGIS | VIYSDGRRTFYGDSVK | GRAAGIYDS | ND / ND / ND / ND / ND / ND | ND | 0 of 18 |
| GFTLNSYGIS | VIYSDGRRTFYSDSVK | GKAAGIFDT | ND / ND / ND / ND / ND / ND | ND | 0 of 18 |
| GFTLNEYGIS | VIYSDGRRTFYADSVK | GRAAGTFMS | ND / ND / ND / ND / ND / ND | ND | 0 of 18 |
| GFDLNSYGIS | VIYSDGRRTFYGDSVK | GRKAGTFES | 2.36 / ND / ND / ND / 2.92 / 1.50 | 2.26 | 0 of 18 |
| GFQLNDYGIS | VIYSDGRRTFYSDSVK | GKAAGTFDS | 0.60 / 0.23 / 0.28 / 0.16 / 0.40 / 0.41 | 0.35 | 0 of 18 |
| GFTLNDYGIS | VIYSDGRRTFYKDSVK | GRTAGTFIS | ND / ND / ND / ND / ND / ND | ND | 0 of 18 |
| GFTLNEYGIS | VIYSDGRRTFYGESVK | GRAAVTFDS | 0.56 / 0.04 / 0.71 / 0.37 / 0.08 / 0.67 | 0.40 | 0 of 18 |
| GFDLNSYGIS | VIYSDGRRTFYIDSVK | GRAAGTFDQ | 0.77 / 1.34 / 0.71 / 2.01 / 0.56 / 0.99 | 1.06 | 1 of 18 (1.57) |
| GFTLNEYGIS | VIYSDGRRTFYTDDVK | GEAAGTFES | ND / 1.69 / ND / 0.96 / ND / 1.02 | 1.22 | 0 of 18 |
| GFTLNDYGIS | VIYSDGKRTFYGDSVK | GRTAGTFWS | ND / ND / ND / ND / ND / ND | ND | 0 of 18 |
| GFTLNDYGIS | VIYSDGRRTWYDDSVK | GRAAGTFDS | 0.32 / 0.24 / 1.00 / -0.13 / 1.53 / 1.22 | 0.70 | 0 of 18 |
| GFTLNEYGIS | VIYSDGRRTFYWDSVK | GRAAVTFDL | ND / ND / ND / ND / ND / ND | ND | 0 of 18 |
| GFQLNDYGIS | VIYSDGRRTFYIDTVK | GNAAGTFDS | 1.16 / 1.16 / 0.96 / 0.76 / 0.80 / 1.37 | 1.03 | 0 of 18 |
| GFDLNSYGIS | VIYSDGRRTFYGDSVK | GRTAGAFWS | ND / ND / ND / ND / ND / ND | ND | 0 of 18 |
| GFQLNMYGIS | VIYSDGRRTQYIDSVK | GRAAGTFDS | 0.17 / ND / 1.57 / ND / ND / ND | 0.87 | 0 of 18 |
| GFLLNDYGIS | VIYSDGRRTFYKDSVK | GRAAGTFDS | ND / -0.95 / ND / -1.36 / ND / -0.41 | -0.91 | 0 of 18 |

The opening 2 entries, copied out:

| CDR-H1 | CDR-H2 | CDR-H3 | replicates, log10 nM | mean log10 Kd (nM) | signal with controls |
|---|---|---|---|---|---|
| GFTLNEYGIS | VIYSDGRRTFYTDSVK | GRLAGTFDE | 0.60 / 0.13 / 0.42 / -0.16 / -0.01 / 0.76 | 0.29 | 0 of 18 |
| GFTLNDYGIS | VIYSDGRRTFYGDSVK | GRAAGTFDE | 0.54 / 0.51 / 1.00 / 0.66 / 0.67 / 0.92 | 0.72 | 1 of 18 (1.67) |

Values reported by Li et al. 2023, doi:10.1038/s41467-023-39022-2 (FLAb copy).